Reference: PMC6450568 (Bioorganic & medicinal chemistry letters, 2019)

Target: T1, native MDH (malate dehydrogenase) reporter enzyme (Sus scrofa, UniProt P00346)
T1 sequence (P00346 25-338): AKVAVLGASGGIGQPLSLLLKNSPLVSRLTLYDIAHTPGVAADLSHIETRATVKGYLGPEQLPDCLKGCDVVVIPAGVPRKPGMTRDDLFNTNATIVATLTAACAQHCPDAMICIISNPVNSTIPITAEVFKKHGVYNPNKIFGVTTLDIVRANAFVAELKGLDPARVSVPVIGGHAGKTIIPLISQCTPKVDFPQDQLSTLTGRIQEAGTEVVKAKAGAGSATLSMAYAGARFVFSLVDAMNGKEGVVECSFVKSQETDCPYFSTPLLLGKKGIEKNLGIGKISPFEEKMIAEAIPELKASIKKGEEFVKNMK
Test: Native MDH enzymatic reporter counter-screen
Assay type: biochemical

SMILES | IC50
CC1=C(/C=C/C(C)=C/C=C/C(C)=C/C(=O)O)C(C)(C)CCC1 [Compound 25, Retinoic acid] | > 63 µM
CC1=NCCc2c1[nH]c1cc(O)ccc21 [Compound 54, Harmalol] | > 63 µM
